Data on 1 molecule can be found in paper PMC4503980 (Scientific Reports, 2015).

Sequences of proteins named here, by UniProt entry; tags and fusion partners are left off. Residues count along the entry.
UniProt P78352, 61-249: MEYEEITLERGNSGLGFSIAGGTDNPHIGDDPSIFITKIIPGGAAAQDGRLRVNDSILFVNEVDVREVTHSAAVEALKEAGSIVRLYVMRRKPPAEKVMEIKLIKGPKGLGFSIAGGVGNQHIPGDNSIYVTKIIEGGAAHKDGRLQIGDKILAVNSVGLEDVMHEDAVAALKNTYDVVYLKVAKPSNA
UniProt P78352, 155-249: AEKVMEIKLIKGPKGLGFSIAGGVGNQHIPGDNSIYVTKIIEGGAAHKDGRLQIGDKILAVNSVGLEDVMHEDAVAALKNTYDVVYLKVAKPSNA

In one assay the target is T1, PSD-95-PDZ1-2 (Homo sapiens, UniProt P78352).
T1 construct: PDZ1-2 (61-249); made in house; host or cells: E. coli BL21-DE3 pLysS
Nature of the assay: FP saturation and inhibition, TAMRA-Cnskr2 / PSD-95-PDZ1-2. Type of assay: binding. To be noted: TAMRA-Cnskr2 5 nM, PDZ1-2 1 μM. The text has this:
(§1) First we tested a series of 23 fluorescent-labelled C-terminal peptide ligands (Supplementary Table S1) derived from PDZ-interacting proteins in order to find a probe with good activity towards the PSD-95 PDZ domains and no or little activity against nNOS-PDZ (Supplementary Fig. S1). The Cnskr2 probe fulfilled these selectivity criteria and was used to generate saturation curves with PDZ2 and PDZ1-2 of PSD-95 (Fig. 4a). […] Next, fixed concentrations of TAMRA-Cnskr2, PSD-95-PDZ2/1-2, and nNOS-PDZ were applied, corresponding to the conditions at IC50 of the nNOS-PDZ inhibition curve (Fig. 4b) where sensitivity of the assay is greatest. […] Here, we used the Sapk3-peptide as it has the desired high affinity to α1-Syntrophin-PDZ and low affinity to nNOS-PDZ (Supplementary Fig. S1).
(§2) The minor increases in mP at high concentrations, 260-2900 μM, were due to fluorescence artefacts.
(§3) Incubation time was 10–15 minutes (room temperature), and the assay was performed in a 1 × TBS buffer (150 mM NaCl, 10 mM Tris, pH 7.4) using black flat-bottom 384-well plates (Corning Life Sciences, NY) and a Safire2 plate-reader (Tecan, Männedorf, Switzerland). […] TAMRA- and Cy5-probes were measured at excitation/emission values of 530/585 nm (bandwidth = 20 nm) and 635/670 nm (bandwidth = 15 nm), respectively. […]

Another assay deals with PSD-95-PDZ2 (Homo sapiens, UniProt P78352). Nature of the assay: FP saturation and inhibition, TAMRA-Cnskr2 / PSD-95-PDZ2. The format is binding. On the set-up: PDZ2 (155-249); made in house; host or cells: E. coli BL21-DE3 pLysS. The conditions noted are these: TAMRA-Cnskr2 5 nM, PDZ2 1.5 μM.
Description: as §1, §2, §3

SMILES strings stand for the structures.

One may read the Ki as a dissociation constant, usually derived from enzyme kinetics or from competition with a known ligand. For the molecule `CC[C@H](C)[C@H](N)C(=O)N[C@@H](CCC(=O)O)C(=O)N[C@@H](CO)C(=O)N[C@@H](CC(=O)O)C(=O)N[C@H](C(=O)O)C(C)C` [GluN2B-C5], the Ki on PSD-95-PDZ1-2 came to 4.8 ± 0.3 µM; on PSD-95-PDZ2 it was 1.6 ± 0.02 µM.
